Results taken from patent publication US20250346584A1, “NOVEL KAPPA OPIOID LIGANDS” (The Scripps Research Institute, priority 2012, published 2025).

Chains of the proteins cited; added tags and fusions are not shown.
UniProt P41145, whole entry: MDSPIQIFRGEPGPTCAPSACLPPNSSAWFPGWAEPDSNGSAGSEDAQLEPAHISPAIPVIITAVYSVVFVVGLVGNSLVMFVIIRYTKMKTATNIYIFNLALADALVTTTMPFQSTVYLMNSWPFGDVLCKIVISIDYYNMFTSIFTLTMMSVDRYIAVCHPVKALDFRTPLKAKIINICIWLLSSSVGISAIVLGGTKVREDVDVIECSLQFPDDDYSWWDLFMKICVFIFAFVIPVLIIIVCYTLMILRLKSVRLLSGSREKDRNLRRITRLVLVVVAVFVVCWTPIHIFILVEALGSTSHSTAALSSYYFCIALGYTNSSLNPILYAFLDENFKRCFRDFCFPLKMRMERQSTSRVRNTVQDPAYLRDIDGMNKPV

Target: kappa opioid receptor (OPRK1) (Homo sapiens (Human), UniProt P41145)
Conditions: read-out: IC50 nM (% inhib if other than 50%); antagonist mode vs EC80 U-50488; NA = not active at concentrations up to 10 μM

Row | SMILES | IC50 [nM]
1 | CON=Cc1cc(Br)cnc1N1CCC(NC2CCCCC2)C(O)C1 (centres unmarked) | 31
2 | CON=Cc1cc(Br)cnc1N1CC[C@@H](NC2CCCCC2)[C@H](O)C1 | 206
3 | CCON=Cc1cc(Br)cnc1N1CC[C@@H](NC2CCCCC2)[C@H](CO)C1 (relative stereo) | 45
4 | CCON=Cc1cc(Br)cnc1N1CCC(NC2CCCCC2)C(O)C1 (centres unmarked) | 41
5 | CON=Cc1cc(C)cnc1N1CC[C@@H](NC2CCCCC2)[C@@H](OC)C1 (relative stereo) | 101
